From PubChem BioAssay AID624417 (National Center for Advancing Translational Sciences (NCATS), 2012)
The list shows a part of the results, in another mix than the full data. Inconclusive results are not listed. Where a call stands in place of a potency, no number is given. Calls of active or inactive are those of the source. Calls follow the shape of the dose curve; as a rule, active = well fitted inhibition curve with a large enough effect; inconclusive = small, poorly fitted or top-dose-only effect; inactive = no such curve, though single readings can be large or run the other way.
Also: nearly all actives have a fitted effect of over 55% in size.
Potency is read from the fitted curve at half-maximal effect.

Sequences of proteins named here, by UniProt entry; tags and fusion partners are left off.
UniProt P43220, whole entry, looked up: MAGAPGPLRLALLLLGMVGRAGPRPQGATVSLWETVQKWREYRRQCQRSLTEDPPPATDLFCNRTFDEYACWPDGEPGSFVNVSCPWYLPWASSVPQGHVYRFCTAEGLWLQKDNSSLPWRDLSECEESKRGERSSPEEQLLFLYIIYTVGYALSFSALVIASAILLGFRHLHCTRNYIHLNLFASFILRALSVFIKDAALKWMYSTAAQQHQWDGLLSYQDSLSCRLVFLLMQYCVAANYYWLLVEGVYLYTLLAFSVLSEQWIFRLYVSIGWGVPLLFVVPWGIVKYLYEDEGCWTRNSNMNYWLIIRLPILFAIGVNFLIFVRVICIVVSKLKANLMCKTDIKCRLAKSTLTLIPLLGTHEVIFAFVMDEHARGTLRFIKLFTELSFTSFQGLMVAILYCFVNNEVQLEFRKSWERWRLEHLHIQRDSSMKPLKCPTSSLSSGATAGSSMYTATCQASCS

These molecules were tested against Glucagon-like peptide 1 receptor (Homo sapiens) (UniProt P43220) (assay: qHTS of GLP-1 Receptor Inverse Agonists (Inhibition Mode)). Details: HEK293 GLP-1R CRE-luciferase, luminescence, 24 h, GLP-1R form is constitutively active; series mostly up to 38.3 µM.
`Nc1ccccc1[As](=O)(O)c1ccccc1` was tested, and the Potency was “inactive”.
`O=C(O)COc1ccc([As](=O)(O)O)cc1[N+](=O)[O-]` was tested, and the Potency was “inactive”.
In the case of `CCOP1(=S)c2c(C)nn(CCC#N)c2N=C(c2ccccc2F)N1C` (stereo not given), the Potency is reported as “inactive”.
`O=P(Nc1nccs1)(Oc1ccccc1)Oc1ccccc1` was tested, and the Potency was “inactive”.
`O=P(Nc1nccs1)(c1ccccc1)c1nc2ccccc2s1` (stereo not given) was tested, and the Potency was “inactive”.
In the case of `CS(=O)(=O)c1cc([N+](=O)[O-])c2no[n+]([O-])c2c1`, the Potency is reported as “inactive”.
For `CN(C(=O)Cc1ccccc1)[C@@H]1CC[C@]2(CCCO2)C[C@H]1N1CCCC1`, the Potency was “inactive”.
`CCOP1(=S)c2c(C)nn(CCC#N)c2N=C(c2ccc(F)cc2)N1C` (stereo not given) was tested, and the Potency was “inactive”.
For `O=[N+]([O-])c1ccc2c(c1)nnn2O`, the Potency was “inactive”.
For `CN(C)C(=O)c1cc([N+](=O)[O-])cc2c1-c1c(cc([N+](=O)[O-])cc1[N+](=O)[O-])C2=O`, the Potency was “inactive”.
`CN(C(=O)Cc1ccc(Cl)c(Cl)c1)[C@H]1CC[C@@]2(CCCO2)C[C@@H]1N1CCCC1` was tested, and the Potency was “inactive”.
With `NC(=O)Nc1ccc([As](=O)(O)O)cc1` the Potency was “inactive”.
In the case of `Cc1cccc(OCC(=O)OC2CN3CCC2CC3)c1` (stereo not given), the Potency is reported as “inactive”.
For `O=[As](O)(c1cccc(O)c1)c1cccc(O)c1`, the Potency was “inactive”.
For `O=C(OC1CN2CCC1CC2)c1ccc(Cl)cc1` (stereo not given), the Potency was “inactive”.
`O=[As](O)(O)c1cccnc1` was tested, and the Potency was “inactive”.
`COc1cc(C(=O)NCC2(N3CCOCC3)CCCCC2)cc(Cl)c1OC(C)C` was tested, and the Potency was active: 3.55 µM.
`CS(=O)(=O)c1ccc(Cl)c(NC(=O)COC(=O)C(O)(c2ccccc2)c2ccccc2)c1` was tested, and the Potency was “inactive”.
`COc1cc(C2NCCC3(OCCO3)C2(C)C)cc(OC)c1OC` (stereo not given) was tested, and the Potency was “inactive”.
For `CCOP(=O)(Nc1cccc2ccccc12)OCC`, the Potency was “inactive”.
`Cc1ccc(NCCc2c([N+](=O)[O-])cc([N+](=O)[O-])cc2[N+](=O)[O-])cc1` was tested, and the Potency was “inactive”.
With `Nc1cccc2c([As](=O)(O)O)cccc12` the Potency was “inactive”.
For `CCCOP(=S)(Nc1nc(N)cc(=O)[nH]1)OCCC`, the Potency was “inactive”.
`O=P1(N(CCCl)CCCl)NCCC(C(F)(F)F)O1` (stereo not given) was tested, and the Potency was “inactive”.
For `Clc1n[nH]nc1-c1nn[nH][15n]1`, the Potency was “inactive”.
For `CC(C)(C)C(=O)NC(Sc1ncccn1)C(Cl)(Cl)Cl` (stereo not given), the Potency was “inactive”.
`O=P1(Nc2ccccn2)COc2ccccc2OC1` was tested, and the Potency was “inactive”.
`CCOP(=O)(NC(=NC(C)c1ccccc1)NC(C)c1ccccc1)OCC` (stereo not given) was tested, and the Potency was “inactive”.
With `CCOP(=O)(Nc1ccc(C)cn1)OCC` the Potency was “inactive”.
In the case of `CN(CCCl)Cc1cc(Cl)c(NC2=NCCN2)c(Cl)c1`, the Potency is reported as “inactive”.
For `CC(C)/C=N\N=C(\N)N[N+](=O)[O-]`, the Potency was “inactive”.
In the case of `CN(C(=O)Cc1ccc(Cl)c(Cl)c1)[C@@H]1CCCC[C@H]1N1CCCC1`, the Potency is reported as “inactive”.
With `CC1(CBr)Cn2c(nc3ccccc3c2=O)S1` (stereo not given) the Potency was “inactive”.
With `COc1ccccc1CNC(=O)COC(=O)C(O)(c1ccccc1)c1ccccc1` the Potency was “inactive”.
For `CN(C)C1(CNC(=O)c2ccc(S(C)(=O)=O)cc2)CCCCC1`, the activity change, negative = inhibition was inactive: -21.8% [at 7.66 µM].
In the case of `CCCC1OP(=O)(Nc2ccccc2)OCC1CC` (stereo not given), the Potency is reported as “inactive”.
With `Cc1nn(-c2ccccc2)c2c1P(=O)(N1CCOCC1)N(C)C(c1ccccc1)=N2` (stereo not given) the Potency was “inactive”.
With `Cc1ccc(C(=O)OC2CN3CCC2CC3)cc1` (stereo not given) the Potency was “inactive”.
`Nc1cccc([As](=O)(O)c2ccccc2)c1` was tested, and the Potency was “inactive”.
For `Cc1ccc(OCC(=O)OC2CN3CCC2CC3)cc1` (stereo not given), the Potency was “inactive”.
For `O=[As](O)(c1cccs1)c1cccs1`, the Potency was “inactive”.
For `O=P1(Nc2ccc(Br)cn2)COc2ccccc2OC1`, the Potency was “inactive”.
In the case of `NS(=O)(=O)c1cccc(NC(=O)COC(=O)C(O)(c2ccccc2)c2ccccc2)c1`, the Potency is reported as “inactive”.
In the case of `Cc1ccc(S(=O)(=O)N(CCCN)CCCc2c(C)nc(N)[nH]c2=O)cc1`, the Potency is reported as “inactive”.
For `O=P1(Nc2ncccn2)COc2ccccc2OC1`, the Potency was “inactive”.
For `COP(=O)(OC)N1CC1c1ccccc1` (stereo not given), the Potency was “inactive”.
In the case of `Cc1cc(SC(NC(=O)c2ccccc2)C(Cl)(Cl)Cl)nc(C(C)C)n1` (stereo not given), the Potency is reported as “inactive”.
In the case of `CCOC(=O)Nc1ccc([As](=O)(O)O)c(O)c1`, the Potency is reported as “inactive”.
In the case of `O=C(O)C(O)c1ccc(N(CCCl)CCCl)cc1` (stereo not given), the Potency is reported as “inactive”.
For `CC1CCNP(=O)(N(CCCl)CCCl)O1` (stereo not given), the Potency was “inactive”.
`Cc1cc(SC(NC=O)C(Cl)(Cl)Cl)ncn1` (stereo not given) was tested, and the Potency was “inactive”.
`O=[N+]([O-])c1ccc(Nc2ccc(Oc3ccc([N+](=O)[O-])cc3[N+](=O)[O-])cc2)c([N+](=O)[O-])c1` was tested, and the Potency was “inactive”.
`CCOC(=O)Nc1cccc([As](=O)(O)O)c1` was tested, and the Potency was “inactive”.
With `O=C(COc1ccccc1)OC1CN2CCC1CC2` (stereo not given) the Potency was “inactive”.
In the case of `O=C(Nc1ccncc1[N+](=O)[O-])c1ccc([N+](=O)[O-])cc1[N+](=O)[O-]`, the Potency is reported as “inactive”.
`COP1(=S)c2c(C)nn(CCC#N)c2N=C(c2ccc(F)cc2)N1C` (stereo not given) was tested, and the Potency was “inactive”.
With `COC(=O)C1(C)COP(=O)(N2CCCC2)OC1` (stereo not given) the Potency was “inactive”.
With `CCOC(=O)c1ccc(NC(=O)C(C)(CCl)SC)cc1` (stereo not given) the Potency was “inactive”.
For `O=P1(N(CCCl)CCCl)Nc2ccccc2N1`, the Potency was “inactive”.
For `O=P1(N(CCCl)CCCl)OCCCN1CCCl` (stereo not given), the Potency was “inactive”.
With `COc1cc(I)ccc1[As](=O)(O)O` the Potency was “inactive”.
`Cc1cc(=O)[nH]c(N[N+](=O)[O-])n1` was tested, and the Potency was “inactive”.
In the case of `O=[N+]([O-])c1cc(Oc2ccc([N+](=O)[O-])cc2C(F)(F)F)cc([N+](=O)[O-])c1`, the Potency is reported as “inactive”.
For `COc1ccc(N/C(=N/P(=O)(N2CCOCC2)N2CCOCC2)N2CCOCC2)cc1`, the activity change, negative = inhibition was inactive: -2.27% [at 7.66 µM].
In the case of `[N-]=[N+]=NC1CCCCC1NC(=O)c1cc([N+](=O)[O-])cc([N+](=O)[O-])c1` (stereo not given), the Potency is reported as “inactive”.
`Cc1ccc(OP(=O)(Nc2ccc([N+](=O)[O-])cn2)Oc2ccc(C)cc2)cc1` was tested, and the Potency was “inactive”.
For `C[As](=O)(O)c1cccc(C(=O)O)c1`, the Potency was “inactive”.
For `O=[As](O)(c1ccc(O)cc1)c1ccccc1O`, the Potency was “inactive”.
For `COc1cc(C(=O)NCC2(N3CCOCC3)CCCCC2)ccc1OCC(C)C`, the Potency was active: 4.47 µM.
`CC(C)NC(=O)NP(=O)(Oc1ccccc1)Oc1ccccc1` was tested, and the Potency was “inactive”.
With `CCN(CC)C(=S)SC(NC=O)C(Cl)(Cl)Cl` (stereo not given) the Potency was “inactive”.
`O=C(OC1CN2CCC1CC2)c1cccc2[nH]cnc12` (stereo not given) was tested, and the Potency was “inactive”.
`ClCCSc1nnc(-c2cccnc2)o1` was tested, and the Potency was “inactive”.
With `COC(=O)C1(C)COP(=O)(N2CCCCCC2)OC1` (stereo not given) the Potency was “inactive”.
In the case of `Cc1cc(SC(NC(=O)c2ccc(F)cc2)C(Cl)(Cl)Cl)ncn1` (stereo not given), the Potency is reported as “inactive”.
